# Earlier results as cited in US5811073A, “Method for radioisotopic detection and localization of inflammation in a host” (President and Fellows of Harvard College, priority 1995, dated 1998).
# Tested on: sterile and bacterial inflammation
# Settings: i.v., 200-300 μCi gallium-67 citrate, 300-500 μCi ^99m Tc-human serum albumin, 100-150 μCi ^111 In-IgG or ^125 I-IgG; cited from earlier work
substance,measurement,value
"^99m Tc-human serum albumin: ^99m Tc-human serum albumin (Medi-Physic, Richmond, Calif.)",time of maximum target to background tissue ratio for image intensity,3 h
